# Measured affinities in a library of Ab-91 heavy chain variants

Antigen: PDVDLGDISGINAS, a 14-residue peptide of the SARS-CoV-2 spike HR2 region.

The variants keep the light chain, the linker and the frameworks of Ab-91 (scFv order VL, the linker GGGGSGGGGSGGGGS, VH).
VL: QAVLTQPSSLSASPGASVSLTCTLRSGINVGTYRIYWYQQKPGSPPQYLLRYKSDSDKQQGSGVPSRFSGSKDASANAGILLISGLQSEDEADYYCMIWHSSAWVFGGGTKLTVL
VH: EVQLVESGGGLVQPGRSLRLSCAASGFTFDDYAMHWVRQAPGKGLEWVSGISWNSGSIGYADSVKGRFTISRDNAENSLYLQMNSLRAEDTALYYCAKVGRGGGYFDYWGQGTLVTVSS

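The library (AAYL51) carries one to three amino acid substitutions per variant, with no insertions or deletions. AlphaSeq pools MATa yeast showing the antibodies with MATalpha yeast showing the peptide. After mating in shaken culture at 30 °C for 16 h, diploids were selected and their barcode pairs sequenced. A regression on co-assayed BCL2-family reference pairs converts the normalised counts of each replicate to an apparent Kd. There are three technical replicates.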

Changes read parent residue, position, new residue, counted from the first residue of the VH shown.
The read-out is the apparent dissociation constant on a log10 scale (nM): the lower, the stronger.
The mean shown is taken over the replicates in which the pair was detected.
An entry "nd" has no value in the source: the pair was not observed among the diploids in that replicate. This suggests poor binding but is not conclusive.
Three control strains display no target. For library AAYL51, 21% of the pairings with them gave a signal, with a median of 4.54 and one signal in twenty below 3.26, so weak values seen in few replicates may be background. The control count says in how many pairings with the empty strains this scFv gave a signal, with their mean in brackets.

| # | changes | replicates, log10 nM | mean log10 Kd (nM) | signal with controls |
|---|---|---|---|---|
| 1 | N54V+I58G+G104K | nd / nd / nd | nd | 0/9 |
| 2 | S52R+S57C+D62I | 3.83 / 5.66 / 4.54 | 4.68 | 6/9 (4.79) |
| 3 | T28H+S63W+D107Q | nd / nd / 2.39 | 2.39 | 0/9 |
| 4 | Y32E+G56F+I58D | nd / nd / nd | nd | 1/9 (3.64) |
| 5 | G26E+F27V+H35Q | 2.28 / 2.28 / 2.09 | 2.22 | 6/9 (5.28) |
| 6 | Y32C+S55I+D107T | 5.57 / 5.40 / nd | 5.48 | 1/9 (4.33) |
| 7 | T28V+A61F+G102R | nd / nd / nd | nd | 0/9 |
| 8 | G100V+R101K+G104K | 3.44 / nd / nd | 3.44 | 1/9 (4.59) |
| 9 | M34Q+G56R | nd / nd / nd | nd | 2/9 (3.80) |
| 10 | A33W+W53V+A61D | nd / nd / nd | nd | 0/9 |
| 11 | G26N+F27S+S63R | nd / nd / nd | nd | 3/9 (4.33) |
| 12 | H35N+I58Y+R101K | nd / nd / nd | nd | 3/9 (4.94) |
| 13 | N54C+G104M+F106Y | 4.21 / 4.39 / nd | 4.30 | 2/9 (4.58) |
| 14 | F29P+G59Q+F106S | nd / nd / nd | nd | 0/9 |
| 15 | Y32R+S52M+G102V | nd / nd / nd | nd | 4/9 (4.51) |
| 16 | S55K+K65Y | 4.26 / 3.93 / 4.44 | 4.21 | 2/9 (4.84) |
| 17 | G26N+G56D+D62P | 2.73 / 3.21 / 3.03 | 2.99 | 2/9 (4.20) |
| 18 | H35R+W53I | nd / 4.83 / nd | 4.83 | 0/9 |
| 19 | I58E+Y60C+V99F | 4.27 / 4.27 / 3.53 | 4.02 | 1/9 (5.14) |
| 20 | G103A | nd / 5.90 / nd | 5.90 | 1/9 (4.67) |
| 21 | S55A+S57R+V64C | nd / nd / nd | nd | 0/9 |
| 22 | M34Q+S57I | nd / nd / nd | nd | 3/9 (5.05) |
| 23 | S52E+V64Q+Y108F | nd / nd / nd | nd | 1/9 (5.80) |
| 24 | A33C+R101Q+G102C | nd / nd / nd | nd | 0/9 |
| 25 | S52Y+W53L | nd / nd / nd | nd | 1/9 (4.17) |
| 26 | G59M+V99F+D107A | nd / nd / nd | nd | 4/9 (4.53) |
| 27 | S55E+G100H | nd / 5.86 / 4.61 | 5.23 | 1/9 (4.43) |
| 28 | G26Y+D62M+S63K | nd / nd / nd | nd | 0/9 |
| 29 | W53I+G102W+Y108I | nd / nd / nd | nd | 0/9 |
| 30 | H35V+S52I+G100F | 5.18 / 5.44 / 5.12 | 5.25 | 2/9 (4.15) |

The opening 2 entries, copied out:

| changes | replicates, log10 nM | mean log10 Kd (nM) | signal with controls |
|---|---|---|---|
| N54V+I58G+G104K | nd / nd / nd | nd | 0/9 |
| S52R+S57C+D62I | 3.83 / 5.66 / 4.54 | 4.68 | 6/9 (4.79) |

The measurements come from Engelhart et al. 2022 (doi:10.1038/s41597-022-01779-4) through the FLAb antibody collection.